Key:
[1] = target: Protein arginine N-methyltransferase 6 (Homo sapiens, UniProt Q96LA8); test: Inhibition of recombinant human N-terminal His-tagged PRMT6 (2 to 375 residues) expressed in Escherichia coli using of histone H3 as substrate preincubated for 15 mins followed by substrate/S-adenosyl methionine addition measured after 60 mins by alpha LISA assay
[2] = target: T1, Protein arginine N-methyltransferase 7 (Homo sapiens, UniProt Q9NVM4); test: Inhibition of recombinant human N-terminal His-tagged full length PRMT7 expressed in baculovirus using of histone H4 as substrate preincubated for 15 mins followed by substrate/[3H]-SAM addition measured after 240 mins
T1 sequence (Q9NVM4 whole entry): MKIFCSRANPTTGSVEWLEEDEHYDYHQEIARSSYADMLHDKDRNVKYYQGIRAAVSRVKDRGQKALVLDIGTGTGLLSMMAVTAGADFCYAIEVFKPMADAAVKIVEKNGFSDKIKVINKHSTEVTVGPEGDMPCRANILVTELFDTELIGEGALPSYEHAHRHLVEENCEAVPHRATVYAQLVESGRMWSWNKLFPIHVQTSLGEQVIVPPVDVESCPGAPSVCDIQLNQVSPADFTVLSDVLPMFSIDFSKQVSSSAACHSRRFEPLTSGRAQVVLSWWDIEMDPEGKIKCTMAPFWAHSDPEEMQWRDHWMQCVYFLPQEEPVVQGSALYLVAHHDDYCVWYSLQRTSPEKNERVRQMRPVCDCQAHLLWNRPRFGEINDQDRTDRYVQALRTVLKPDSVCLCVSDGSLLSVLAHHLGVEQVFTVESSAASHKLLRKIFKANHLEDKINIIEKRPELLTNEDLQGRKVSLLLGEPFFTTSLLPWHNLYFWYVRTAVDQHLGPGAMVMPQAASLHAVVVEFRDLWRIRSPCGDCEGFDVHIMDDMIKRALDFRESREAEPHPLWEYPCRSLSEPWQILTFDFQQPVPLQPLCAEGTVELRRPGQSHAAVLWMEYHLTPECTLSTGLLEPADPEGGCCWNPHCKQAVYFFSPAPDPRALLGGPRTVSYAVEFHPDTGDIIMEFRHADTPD

Amino acid sequences for entries named in this document (tags omitted).
UniProt Q96LA8, whole entry: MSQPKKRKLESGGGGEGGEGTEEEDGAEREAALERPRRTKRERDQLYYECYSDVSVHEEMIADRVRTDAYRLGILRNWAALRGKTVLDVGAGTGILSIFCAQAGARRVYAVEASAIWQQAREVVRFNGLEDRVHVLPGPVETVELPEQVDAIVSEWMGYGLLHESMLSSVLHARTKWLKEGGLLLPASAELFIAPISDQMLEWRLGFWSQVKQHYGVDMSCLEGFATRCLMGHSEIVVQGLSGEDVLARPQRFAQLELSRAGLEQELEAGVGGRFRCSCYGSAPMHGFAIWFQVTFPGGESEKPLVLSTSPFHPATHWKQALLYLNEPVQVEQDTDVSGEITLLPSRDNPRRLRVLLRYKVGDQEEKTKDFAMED

IC50 [1]: > 100 µM | IC50 [2]: > 100 µM
Compound: COC(=O)c1ccccc1NC(=O)CSc1nc2cc(OC)ccc2[nH]1

From ChEMBL document CHEMBL4011642, “Potent, Selective, and Cell Active Protein Arginine Methyltransferase 5 (PRMT5) Inhibitor Developed by Structure-Based Virtual Screening and Hit Optimization” (J Med Chem, 2017)
